Measured values as given in patent publication US8309577B2, “Quinuclidine compounds as α-7 nicotinic acetylcholine receptor ligands” (Bristol-Myers Squibb Company, priority 2008, dated 2012).
Where two headings read alike, the source gives them in different places.

By UniProt entry, the sequences of proteins in these tests, tags left out. Residues count along the entry.
UniProt Q05941, 23-502 limits assumed: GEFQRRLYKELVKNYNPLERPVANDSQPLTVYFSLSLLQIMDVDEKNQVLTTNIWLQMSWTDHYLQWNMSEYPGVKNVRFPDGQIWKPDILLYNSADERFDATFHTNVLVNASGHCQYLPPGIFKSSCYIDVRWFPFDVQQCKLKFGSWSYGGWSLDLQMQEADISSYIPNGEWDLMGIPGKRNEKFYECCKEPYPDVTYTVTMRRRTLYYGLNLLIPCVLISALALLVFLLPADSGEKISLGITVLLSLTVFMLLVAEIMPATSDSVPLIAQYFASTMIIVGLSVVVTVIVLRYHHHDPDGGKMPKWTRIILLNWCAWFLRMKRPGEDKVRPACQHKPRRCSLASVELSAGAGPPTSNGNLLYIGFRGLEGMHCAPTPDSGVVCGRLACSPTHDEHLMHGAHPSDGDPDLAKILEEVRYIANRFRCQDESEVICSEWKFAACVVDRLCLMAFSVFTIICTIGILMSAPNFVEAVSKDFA

Biological target: α-7 nicotinic acetylcholine receptor channel expressed in HEK 293 cells (Rattus norvegicus, UniProt Q05941)
Experiment: Ca2+-sensitive fluorescence-based FLIPR assay, α7 nicotinic ACh receptor channel function (agonist)
Assay type: cell-based
[1] = read-out: FLIPR α7 activity rating (EC50), Table 1, agonist Ca2+ flux

Structure (SMILES)	EC50 (read-out: FLIPR α7 (EC50), Table 1, agonist Ca2+ flux)	EC50 [1]
Brc1cnc(NC2=NC[C@@]3(CN4CCC3CC4)O2)nc1	0.004 µM	< 0.1 µM
COc1cc2sc(NC3=NCC4(CN5CCC4CC5)O3)nc2cc1Cl (stereo not shown)	–	1 to 100 µM
Brc1ccc2nc(NC3=NC[C@@]4(CN5CCC4CC5)O3)ccc2c1	–	0.1 to 1 µM
